The values below are quoted from earlier work in US20230023414A1, “METHODS AND DEVICES FOR TREATING A DISEASE WITH BIOTHERAPEUTICS” (PROGENITY, INC., priority 2018, published 2023).

For the series the following is noted: cited from earlier work.

Regarding dalteparin, the “stability in commercial off-the-shelf syringes” value is recorded as 30 days.
